Legend:
LPAR1 receptor = target: T1, LPAR1 receptor (Homo sapiens, UniProt Q92633); experiment: LPAR1 in vitro biological activity evaluation 2: HTRF cAMP kit (LANCE Ultra cAMP Kit) assay in CHO stable transfected cell line expressing the LPAR1 receptor; type: cell-based; details: Table 2, read-out: LPAR1 inhibitory activity IC50
T1 construct: expressed in transfected cells
Protocol: The inhibitory effects of the compounds of the present disclosure on the LPAR1 receptor were determined using a Chinese hamster ovary (CHO) stable transfected cell line expressing the LPAR1 receptor, through the HTRF cAMP kit (LANCE® Ultra cAMP Kit).
The CHO cell line expressing the LPAR1 receptor was cultured in F-12 medium (Gibco, 117650054) containing 10% fetal bovine serum (FBS, Avantor, 76294-180) and 0.2 mg/mL hygromycin B (Solarbio, H8080-1g) at 37°C with 5% CO2. Cell passage, recovery, and cryopreservation were performed according to conventional methods. The stable transfected cell line was cultured to 80% confluence, digested with trypsin to collect cells, counted, and then seeded at 5 µL/well in a 384-well plate (500 cells/5 µL). The 1× Stimulation Buffer was prepared according to the instructions of the kit (LANCE® Ultra cAMP Kit). 1 µL of the test compound solution (diluted to 10× with 1× Stimulation Buffer) was added to the corresponding experimental wells, followed by centrifugation and incubation at 37°C for 10 minutes. […] After the incubation was completed, the readings at 665 nm and 620 nm under 330 nm excitation were detected using the HTS high-throughput drug screening multifunctional microplate reader (BMG, PHERAstar FSX). The IC50 values were calculated by fitting nonlinear regression (dose response - variable slope) using GraphPad Prism software. […]

Chains of the proteins cited; added tags and fusions are not shown. Lines headed by an entry give the natural chain unless they say otherwise; changes in a name come on top.
UniProt Q92633: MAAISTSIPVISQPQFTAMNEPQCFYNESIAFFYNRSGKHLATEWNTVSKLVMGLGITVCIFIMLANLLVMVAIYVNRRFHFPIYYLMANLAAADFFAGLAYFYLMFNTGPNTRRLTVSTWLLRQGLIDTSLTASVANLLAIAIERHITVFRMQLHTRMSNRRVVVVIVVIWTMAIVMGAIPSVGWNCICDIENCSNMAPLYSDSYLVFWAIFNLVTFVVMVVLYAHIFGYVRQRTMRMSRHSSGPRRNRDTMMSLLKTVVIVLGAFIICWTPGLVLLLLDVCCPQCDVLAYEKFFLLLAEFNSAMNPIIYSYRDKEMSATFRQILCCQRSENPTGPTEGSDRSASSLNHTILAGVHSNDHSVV

[1] = target: hLPAR1 (human lysophosphatidic acid receptor 1, Accession No.: NM_001401.4) (Homo sapiens, UniProt Q92633); experiment: cell-based; details: Table 1; FLIPR method, CHO-K1 cells overexpressing hLPAR1; read-out: LPAR1 inhibitory activity IC50
Protocol: The antagonist properties of the compounds in the present disclosure were determined using the FLIPR (Fluorometric Imaging Plate Reader) method in CHO-K1 cells (Chinese Hamster Ovary cells K1, ATCC) overexpressing hLPAR1 (human lysophosphatidic acid receptor 1, Accession No.: NM_001401.4).
CHO-K1 cells stably expressing hLPAR1 were placed in a cell culture incubator at 37°C with 5% CO2 and cultured in F-12 medium containing 10% FBS (fetal bovine serum, Gibco, 10099-141), 1% penicillin-streptomycin (Gibco, 15140-122), and 0.4 mg/mL Hygromycin B (Gibco, 10687010). 18-24 hours before the FLIPR experiment, the cells were seeded into a 96-well plate at a density of 250,000 cells/mL (25,000 cells/well) and incubated overnight in the cell culture incubator. […] The cell plate was then placed into the FLIPR for baseline fluorescence measurement (excitation wavelength at 485 nm, emission wavelength at 525 to 535 nm). Subsequently, 50 µL/well of agonist (final concentration 1 µM oleoyl-L-α-lysophosphatidic acid sodium salt (Sigma, L7260)) or vehicle (ultrapure water) was added, and fluorescence values were measured at 1-second intervals for 2 min. Finally, the output fluorescence counts were analyzed using GraphPad Prism 9.0 software log(inhibitor) vs. response--Variable slope (four parameters) equation to calculate IC50 values. […]

Row | Structure (SMILES) | IC50 (LPAR1 receptor) [nM] | IC50 [1] [nM]
1 | CCC(F)(F)[C@@H](C)OC(=O)Nc1c(-c2ccc(C#CC3(CC(=O)O)CC(OC)C3)c(C)n2)nnn1C (stereo partly drawn) [compound 279] | 39 | –
2 | CCC(F)(F)[C@@H](C)OC(=O)Nc1c(-c2ccc(C#CC3(CC(=O)O)CC4(CC4)C3)c(F)n2)nnn1C [compound 501] | 14.7 | –
3 | CCCCN(C)C(=O)OCc1c(-c2ccc(C#CC3(CC(=O)O)CC3)c(C(F)(F)F)n2)nnn1C [compound 102] | – | 34.5

— patent EP4755881A1 (Wuhan Createrna Science and Technology Co., Ltd., priority 2023, dated 2025)
